# Apparent affinities of Ab-14 variants for a coronavirus HR2 peptide

Source: Engelhart et al. 2022 (doi:10.1038/s41597-022-01779-4), MIT Lincoln Laboratory and A-Alpha Bio; data file from the FLAb repository.

The target is the same throughout: PDVDLGDISGINAS, from the HR2 region of SARS-CoV-2 spike.

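The parent was found by panning a naive human phage display library on the peptide. In library AAYL50, one, two or three CDR residues were substituted; doubles and triples were drawn at random. In AlphaSeq, yeast of one mating type display the scFv and yeast of the other type display the target. Binding brings cells together so that they mate, and sequencing counts the barcode pairs among the diploids. Scores were corrected for input abundance and mapped to Kd with protein pairs of known affinity run in the same pool. Mating was done three times.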

Parent: Ab-14, a human scFv built as VH, a 15-residue (Gly4Ser)3 linker, VL. Only the CDRs of the light chain vary.
VH: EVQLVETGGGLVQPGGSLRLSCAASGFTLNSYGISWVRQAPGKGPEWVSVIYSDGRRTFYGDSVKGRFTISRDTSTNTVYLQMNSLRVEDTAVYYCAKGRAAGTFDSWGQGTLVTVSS
VL: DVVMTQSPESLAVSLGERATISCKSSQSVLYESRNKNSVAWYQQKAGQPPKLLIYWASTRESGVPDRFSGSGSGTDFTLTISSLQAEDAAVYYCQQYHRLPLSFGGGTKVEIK

Each variant is given by its three light chain CDRs, as the data file delimits them; those of the parent are KSSQSVLYESRNKNSVA, WASTRES, QQYHRLPLS. Scale: log10 of Kd in nM, estimated from mating counts; low values are strong binders. Where no diploid with the target was found in that replicate, the entry reads "nd": below detection, most likely a poor binder, though not proof of it. Parent in this assay: reference entry 0.65, copy in this library 1.68. As a blank, each scFv also met three strains without target: over library AAYL50, 18% of these pairings were detected, typically at 4.19 and seldom below 2.99. The control count says in how many pairings with the empty strains this scFv gave a signal, with their mean in brackets.

CDR-L1	CDR-L2	CDR-L3	replicates, log10 nM	empty controls
KSSQSVLYESRAKNSVA	WASTRES	QQYHKLPLS	nd / nd / nd	2 of 9 (4.00)
KSSQSVLYESLNKNSVQ	WASTRES	QQYGRLPLS	3.39 / nd / nd	0 of 9
ASSQSVLYEARNKNSVA	WASTRES	QHYHRLPLS	2.27 / 1.60 / 2.44	1 of 9 (2.43)
KSSQSVLYESRNKNSVA	WASTRSF	QQYSRLPLS	1.77 / 1.78 / 2.11	3 of 9 (4.32)
KSSQSVLYESRNKMSVA	WASTRES	QQYHQLPLS	1.42 / 1.41 / 1.42	5 of 9 (4.34)
KSSQFVLYESQNKNSVA	WASTRES	QQAHRLPLS	nd / nd / nd	0 of 9
KSNQSVLYESRNKESVA	WASTRES	QQYHRLPLS	2.45 / 2.66 / 2.69	4 of 9 (4.08)
NSSQSVLYESRNKNSVA	WASTRMS	QQYHRLPLS	1.24 / 1.43 / 1.37	3 of 9 (4.23)
KPSQSVLYESRMKNSVA	WAQTRES	QQYHRLPLS	2.83 / 4.10 / 4.31	0 of 9
KSSQSVLYESRNKNIVR	WASCRES	QQYHRLPLS	nd / nd / nd	2 of 9 (3.78)
KSSQSVLMESRNKNSVA	WASTRES	QQKHRLPLN	1.15 / 1.17 / 1.40	2 of 9 (3.95)
KSSQSKLYESRNKNQVA	WASERES	QQYHRLPLS	1.31 / 1.35 / 1.44	6 of 9 (5.11)
LSSQSVLYYSRNKNSVA	WASSRES	QQYHRLPLS	nd / nd / nd	0 of 9
KSSQEVVYESRNKNSVA	WASTRES	PQYHRLPLS	nd / nd / 4.69	3 of 9 (4.03)
KVSQSVLYESRNKNAVA	WASTAES	QQYHRLPLS	0.89 / 0.97 / 0.82	1 of 9 (3.90)
KASQSVLAESRNKLSVA	WASTRES	QQYHRLPLS	1.05 / 1.04 / 0.90	0 of 9
KSSQSVLYESRNKHSVT	WASTRES	QQYHRDPLS	nd / nd / nd	1 of 9 (3.51)
KSSQSVLYESRRKNSVA	NASTRES	QQYHRLRLS	0.69 / 0.91 / 0.91	3 of 9 (4.40)
KSSQSVLYESRNKKSVA	EASTRES	QQTHRLPLS	0.82 / 0.91 / 0.94	5 of 9 (5.13)
KSSQSVLYEDRNKNSVA	WWSTRES	QQYHRLPLS	nd / nd / nd	0 of 9
KSSTSVLYESRNKNSVA	WQSTRES	LQYHRLPLS	nd / nd / 3.51	2 of 9 (3.58)
KSSQSVLHESRNKNSQA	WASTIES	QQYHRLPLS	nd / 4.09 / nd	3 of 9 (4.59)
KSSQSVLVESRNKNSVA	WDSTRES	QQYHRLPLS	0.92 / 1.06 / 0.93	1 of 9 (4.57)
KPSQSVLYESRNKNSVA	WASTRES	NQYHRLPLG	nd / nd / nd	0 of 9
KCSQSVLYEYRNKNKVA	WASTRES	QQYHRLPLS	nd / nd / nd	3 of 9 (3.89)
KSSQSVLYESRNKNSVA	AASTREG	QQKHRLPLS	1.73 / 1.69 / 2.31	2 of 9 (3.94)
KSSQSVLHESRNKFSVA	WASHRES	QQYHRLPLS	1.27 / 1.27 / 1.19	3 of 9 (4.20)
KSSGSVLYESRNKTSVA	WASDRES	QQYHRLPLS	nd / 3.01 / 3.42	4 of 9 (4.42)
KSSDSVLYESRNSNSCA	WASTRES	QQYHRLPLS	2.72 / 2.44 / 3.38	3 of 9 (3.99)
KSSQSVLEKSRNKNSVA	WAITRES	QQYHRLPLS	1.92 / 1.68 / 1.57	2 of 9 (4.50)
KSSQSVLYESDNKNSVA	WASTRES	QQYHRYPLK	nd / nd / 3.79	1 of 9 (3.50)
KSSQSVLYESPNKDSVA	WASTRES	QQYHRLPLS	nd / 4.33 / 3.93	1 of 9 (2.90)
KSSQSVLYESRNKNHVA	WASTRVS	QQRHRLPLS	nd / nd / nd	1 of 9 (3.46)
KSSVSVLYESRNKNSRA	WASTRES	QQYHALPLS	nd / nd / 3.69	0 of 9
KSSQSVLYSSRNKNSVA	WASTRES	QQYHGNPLS	0.87 / 0.91 / 0.79	2 of 9 (3.90)
KSSQSVLYESRNKNSVA	WASTRED	QQYHRIPLS	0.85 / 1.08 / 0.99	0 of 9
KSSQSVLYESRNKNSVA	WESTRES	QHYLRLPLS	nd / nd / nd	2 of 9 (4.05)
KSSDSVLYESRNLNSVA	WASTRES	QQYHRDPLS	0.45 / 0.71 / 0.65	0 of 9
YSSQSVLYESRNKNSVA	WARTREQ	QQYHRLPLS	3.06 / 2.47 / 1.95	3 of 9 (3.00)
KSSQSVLYESRNKNSDA	WASTPES	QQYHRLPLS	nd / nd / nd	1 of 9 (4.52)

5 of these entries, quoted again:

{"CDR-L1": "KSSQSVLYESLNKNSVQ", "CDR-L2": "WASTRES", "CDR-L3": "QQYGRLPLS", "replicates, log10 nM": "3.39 / nd / nd", "empty controls": "0 of 9"}
{"CDR-L1": "KSNQSVLYESRNKESVA", "CDR-L2": "WASTRES", "CDR-L3": "QQYHRLPLS", "replicates, log10 nM": "2.45 / 2.66 / 2.69", "empty controls": "4 of 9 (4.08)"}
{"CDR-L1": "KSSQSVLYESRNKMSVA", "CDR-L2": "WASTRES", "CDR-L3": "QQYHQLPLS", "replicates, log10 nM": "1.42 / 1.41 / 1.42", "empty controls": "5 of 9 (4.34)"}
{"CDR-L1": "KSSQEVVYESRNKNSVA", "CDR-L2": "WASTRES", "CDR-L3": "PQYHRLPLS", "replicates, log10 nM": "nd / nd / 4.69", "empty controls": "3 of 9 (4.03)"}
{"CDR-L1": "KSSQSKLYESRNKNQVA", "CDR-L2": "WASERES", "CDR-L3": "QQYHRLPLS", "replicates, log10 nM": "1.31 / 1.35 / 1.44", "empty controls": "6 of 9 (5.11)"}